# Measurements published in PubChem BioAssay AID1452 (National Center for Advancing Translational Sciences (NCATS), 2008).
# The chains behind the UniProt entries cited, without tags or fusion partners.
# UniProt P18054, whole entry: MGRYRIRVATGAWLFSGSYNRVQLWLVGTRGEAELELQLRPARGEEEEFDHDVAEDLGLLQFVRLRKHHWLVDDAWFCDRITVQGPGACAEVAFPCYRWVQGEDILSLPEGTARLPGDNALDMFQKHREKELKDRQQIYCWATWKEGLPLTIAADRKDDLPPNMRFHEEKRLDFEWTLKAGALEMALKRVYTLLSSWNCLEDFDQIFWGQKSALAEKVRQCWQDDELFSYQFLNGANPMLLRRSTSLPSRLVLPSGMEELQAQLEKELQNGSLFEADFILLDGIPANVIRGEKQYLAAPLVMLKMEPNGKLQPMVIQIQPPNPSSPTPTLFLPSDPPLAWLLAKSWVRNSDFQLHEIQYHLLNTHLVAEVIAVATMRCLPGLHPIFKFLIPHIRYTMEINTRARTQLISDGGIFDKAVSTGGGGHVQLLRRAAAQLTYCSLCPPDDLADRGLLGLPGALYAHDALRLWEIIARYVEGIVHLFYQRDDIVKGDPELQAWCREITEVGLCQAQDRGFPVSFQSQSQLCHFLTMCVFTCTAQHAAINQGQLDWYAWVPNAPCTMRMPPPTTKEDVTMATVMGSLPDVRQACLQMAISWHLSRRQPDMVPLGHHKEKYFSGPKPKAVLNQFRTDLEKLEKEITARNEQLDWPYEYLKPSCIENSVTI
# This is a selection; strong and weak results do not stand in their true shares. Some results for these compounds are left out of this collection, so the calls shown say nothing about other tests. Calls of active or inactive are those of the source. Calls come from the whole dose curve; as a rule, active = well fitted inhibition curve with a large enough effect; inconclusive = small, poorly fitted or top-dose-only effect; inactive = flat fitted curve, though single readings scatter.
# Molecular target: Polyunsaturated fatty acid lipoxygenase ALOX12 (Homo sapiens) (UniProt P18054)
# Assay: qHTS Assay for Inhibitors of 12-hLO (12-human lipoxygenase); note: nearly all actives have a fitted effect of over 55% in size
# Conditions: purified 12-hLO, xylenol orange hydroperoxide absorbance; at 57.1 µM (top of the series) unless noted
# Excerpt: Assay Provider: Holman, T.R., University of California, Santa Cruz Screening Center PI: Austin, C.P. Screening Center: NIH Chemical Genomics Center [NCGC] Human lipoxygenase 12hLO is a member of the closely related lipoxygenase family of enzymes which catalyze the site-specific oxidation of arachidonic acid to various hormone precursor molecules and as such is a candidate for drug development in a variety of disease areas, such as cancer and inflammation. Inhibition of 12hLO activity was screened by utilizing arachidonic acid as a substrate. The extent of hydroperoxide product formation was measured by a secondary chromogenic reaction in which xylenol orange (XO, Sigma-Aldrich, cat. number 39,818-7) reacts with the ferric ions produced from the reaction between the hydroperoxide and ferrous ions. The Fe(III)-XO complex is characterized with red-shifted absorbance at 560 nm. A purified preparation of human 12hLO was supplied by Professor Ted Holman, University of California, Santa Cruz.
# Assay Protocol: Buffer: 25 mM Hepes pH 7.0, 0.01% Triton X-100. Reagents/Controls: Buffer in columns 3 and 4 as negative control (no enzyme). Substrate solution: 40 uM arachidonic acid (Sigma-Aldrich, St. Louis, MO) final concentration dispensed throughout the plate. Enzyme: 150 nM 12hLO final concentration in columns 1, 2, 5-48. Column 1 is neutral (100% activity). Column 2 contained pin-transferred titration of NDGA (nordihidroguaiaretic acid, Sigma-Aldrich, N 5023, top concentration 20 mM in DMSO, then 1:3 dilution in duplicate). (Dilution factor: 23 nL into 4 uL.) Chromogenic detection reagent (divalent iron/xylenol orange, Fe-XO): 200 uM xylenol orange plus 300 uM ferrous ammonium sulfate prepared freshly in 50 mM sulfuric acid. Assay Steps: Three uL of enzyme were dispensed to 1536-well Greiner black clear bottom plates. Compounds and controls (23 nL) were transferred via Kalypsys PinTool. The plates were incubated for 15 min at room temperature, and then 1 uL of substrate solution was added to start the reaction. After room temperature incubation for 30 minutes, 4 uL of Fe-XO solution was added to each well and the plates were incubated for 30 min. The absorbance at 405 and 573 nm were measured using ViewLux (Perkin-Elmer) High-throughput CCD imager and absorbance protocol settings. The 573-to-405 absorbance ratio was used to compute reaction progress.
# % is set by controls: 0 for no effect and ±100 for the full control effect.
row,SMILES,"activity change, negative = inhibition"
1,CN(C)C1CCCC1OC(=O)C(O)(c1ccccc1)c1ccccc1 (stereo not drawn),inactive: -3.37%
2,CCN1CCCC(OC(=O)C2(O)c3ccccc3C=Cc3ccccc32)C1 (stereo not drawn),inactive: -1.19%
3,CC(C)N1C(=O)CC2(CCN(CCOC(=O)C(O)(c3ccccc3)c3ccccc3)CC2)C1=O,inactive: 1.06%
4,CN1CCC[C@H](OC(=O)[C@](O)(c2ccccc2)C2CCCC2)C1,inactive: 3.22% [at 11.4 µM]
5,O=C(OC1CN2CCC1CC2)C(CO)(c1ccccc1)c1ccccc1 (stereo not drawn),inactive: 8.8%
6,CN1CC[C@H](OC(=O)[C@](O)(c2ccccc2)C2CCCC2)C1,inactive: -0.0666% [at 11.4 µM]
7,C=C(C)C#C[C@@](O)(C(=O)OC1CCN(C)CC1)c1ccccc1,inactive: 2.1% [at 11.4 µM]
8,CN(C)c1cccc(C(=O)NCC2(N(C)C)CCCCC2)c1,inactive: -0.699%
